Test system: NCCc1ccc(O)c(O)c1
Experiment: cells, lysate or membranes

In the case of “dDATfc (Drosophila melanogaster; DEL164-191/F471L/L415A/V74A)”, the Km is reported as 3.6 µM.
